{"source": "patent EP0136831A2", "about": "“Azahomoerythromycin B derivatives and intermediates thereof” (PFIZER INC., priority 1983, dated 1985)", "test_system": "Kleb. pn.", "experiment": "MIC in brain heart infusion (BHI) broth", "format": "cell-based", "conditions": "strain 031"}
{"smiles": "CC[C@H]1OC(=O)[C@H](C)[C@@H](O[C@H]2C[C@@](C)(OC)[C@@H](O)[C@H](C)O2)[C@H](C)[C@@H](O[C@@H]2O[C@H](C)C[C@H](N(C)C)[C@H]2O)[C@](C)(O)C[C@@H](C)C(=O)[C@H](C)[C@@H](O)[C@]1(C)O", "note": "[(1), Erythromycin A]", "values": [{"measurement": "MIC Values", "value": "(a) (greater than 50)"}]}
